{"source": "ChEMBL document CHEMBL1121737", "about": "“Synthesis and evaluation of some stable multisubstrate adducts as specific inhibitors of spermidine synthase” (J Med Chem, 1981)", "key": {"[1]": {"system": "spermine synthase (Rattus norvegicus)", "assay": "Inhibition of spermine synthase at 25 uM concentration of the compound; values are per cent of control"}, "[2]": {"system": "spermine synthase (Rattus norvegicus)", "assay": "Inhibition of spermine synthase at 100 uM concentration of the compound; values are per cent of control"}}}
{"smiles": "CCCCCC(CC)SC[C@H]1OC(n2cnc3c(N)ncnc32)[C@H](O)[C@@H]1O", "note": "(some centres not stated)", "values": [{"measurement": "residual activity", "setting": "[1]", "result": 89, "unit": "%"}, {"measurement": "residual activity", "setting": "[2]", "result": 78, "unit": "%"}]}
